# Target: hCA XII (Homo sapiens, UniProt O43570)
# Amino acid sequences for entries named in this document (tags omitted). Residues count along the entry.
# UniProt O43570, 25-354 limits assumed: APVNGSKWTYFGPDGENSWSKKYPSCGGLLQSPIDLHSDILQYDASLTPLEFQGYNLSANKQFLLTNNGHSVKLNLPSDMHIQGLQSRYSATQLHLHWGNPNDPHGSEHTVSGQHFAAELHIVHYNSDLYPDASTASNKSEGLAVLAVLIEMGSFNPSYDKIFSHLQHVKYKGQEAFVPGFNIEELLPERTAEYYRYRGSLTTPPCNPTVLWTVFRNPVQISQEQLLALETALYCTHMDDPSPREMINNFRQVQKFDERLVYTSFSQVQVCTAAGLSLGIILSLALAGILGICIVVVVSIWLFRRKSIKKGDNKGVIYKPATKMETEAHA
# Test: CA catalysed CO2 hydration stopped-flow inhibition assay, hCA XII
# Details: read-out: Ki hCA XII, 6 h preincubation, mean of three assays
structure (smiles),measurement,value
"CC1(C)O[C@@H]1COc1c2occc2cc2ccc(=O)oc12 [Compound 8, heraclenin]",Ki,836 nM

# Reference: article PMC7006766, “Coumarins from Magydaris pastinacea as inhibitors of the tumour-associated carbonic anhydrases IX and XII: isolation, biological studies and in silico evaluation” (Journal of Enzyme Inhibition and Medicinal Chemistry, 2020)
